Target: T1, PPARα (Homo sapiens, UniProt Q07869)
T1 sequence (Q07869 1-468): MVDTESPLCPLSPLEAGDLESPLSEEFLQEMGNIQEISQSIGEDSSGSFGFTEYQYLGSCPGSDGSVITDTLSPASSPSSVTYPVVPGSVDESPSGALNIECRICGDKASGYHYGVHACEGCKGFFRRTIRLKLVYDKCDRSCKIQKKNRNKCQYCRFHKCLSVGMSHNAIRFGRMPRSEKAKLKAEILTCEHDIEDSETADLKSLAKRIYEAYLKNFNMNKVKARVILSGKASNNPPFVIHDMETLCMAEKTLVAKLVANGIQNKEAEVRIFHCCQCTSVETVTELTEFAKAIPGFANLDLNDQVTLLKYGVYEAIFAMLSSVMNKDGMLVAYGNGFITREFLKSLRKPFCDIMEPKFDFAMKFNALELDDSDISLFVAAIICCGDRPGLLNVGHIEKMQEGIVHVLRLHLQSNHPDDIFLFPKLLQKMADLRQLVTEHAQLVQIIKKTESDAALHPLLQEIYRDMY
Assay: PPARα coactivator recruitment

| SMILES | agonist activity at PPARα |
| --- | --- |
| [2H][C@]1(Cc2ccc(OCCc3ccc(CC)cn3)cc2)SC(=O)NC1=O [PXL065, deuterated (R)‐pioglitazone] | Neither pioglitazone, PXL065, nor d‐S‐pio showed binding to PPARα or agonist activity at PPARα or PPARδ |
| [2H][C@@]1(Cc2ccc(OCCc3ccc(CC)cn3)cc2)SC(=O)NC1=O [d‐S‐pio, deuterated (S)‐pioglitazone] | Neither pioglitazone, PXL065, nor d‐S‐pio showed binding to PPARα or agonist activity at PPARα or PPARδ |

Reference: publication PMC8369945 (Hepatology Communications, 2021)
